Reference: US20190175560A1, “MEBENDAZOLE CANCER THERAPIES AND METHODS OF USE” (Shepherd Therapeutics, Inc., priority 2017, published 2019)

Test system: H295R adrenocortical carcinoma cells
Experiment: Synergy of MBZ with chemotherapeutic agents (Chou-Talalay CI, Cell Titer Glo)
Type: cell-based
Details: in combination with MBZ, 72 hour incubation

How did the “CI range for the concentration pairings” value turn out when `COc1cccc2c1C(=O)c1c(O)c3c(c(O)c1C2=O)C[C@@](O)(C(=O)CO)C[C@@H]3O[C@H]1C[C@H](N)[C@H](O)[C@H](C)O1` [Doxorubicin] was run?
The value was 0.689-0.697.
